# In PubChem BioAssay AID1259310 (The Scripps Research Institute Molecular Screening Center, 2017):
# Protein sequences, listed by entry. Tags and fused reporters are not part of them. Lines headed by an entry give the natural chain unless they say otherwise; changes in a name come on top.
# UniProt Q969H0, whole entry, stated change not applied: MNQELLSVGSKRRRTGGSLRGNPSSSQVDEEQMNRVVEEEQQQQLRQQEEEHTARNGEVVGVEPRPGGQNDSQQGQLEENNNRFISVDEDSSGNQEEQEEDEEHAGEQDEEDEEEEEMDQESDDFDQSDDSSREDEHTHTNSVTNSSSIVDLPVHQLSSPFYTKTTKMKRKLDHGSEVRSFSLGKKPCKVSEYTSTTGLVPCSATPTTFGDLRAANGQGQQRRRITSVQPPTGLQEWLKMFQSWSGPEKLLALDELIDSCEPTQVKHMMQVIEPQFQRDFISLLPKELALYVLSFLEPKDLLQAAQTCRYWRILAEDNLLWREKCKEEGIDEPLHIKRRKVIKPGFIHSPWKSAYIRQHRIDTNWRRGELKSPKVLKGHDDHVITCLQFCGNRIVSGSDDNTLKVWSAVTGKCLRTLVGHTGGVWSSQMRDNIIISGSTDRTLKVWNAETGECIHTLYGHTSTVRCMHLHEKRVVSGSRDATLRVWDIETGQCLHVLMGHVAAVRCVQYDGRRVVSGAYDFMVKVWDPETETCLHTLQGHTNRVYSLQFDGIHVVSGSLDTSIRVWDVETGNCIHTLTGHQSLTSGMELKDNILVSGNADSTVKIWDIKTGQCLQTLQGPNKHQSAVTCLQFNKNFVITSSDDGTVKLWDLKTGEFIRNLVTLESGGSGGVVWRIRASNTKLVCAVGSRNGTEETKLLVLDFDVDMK
# This is a selection; strong and weak results do not stand in their true shares. Some results for these compounds are left out of this collection, so the calls shown say nothing about other tests. Activity calls are given as the source filed them. Cut-off read from the data, not from the text of the source: active = normalized activity above about 1.9%; inactive = the rest.
# Molecular target: F-box/WD repeat-containing protein 7 (Homo sapiens) (UniProt Q969H0)
# Test: FBW7 E3 ligase activators, primary screen, biochemical, AlphaScreen, human (AID 1259310);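 note: purified mutant Fbw7 with reduced substrate affinity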
# Conditions: AlphaScreen FBW7–phospho-cyclin E peptide binding, activator screen; at 26.1 µM; active compounds read high
row,Compound,normalized activity (activation)
1,O=C(c1ccco1)N(Cc1ccco1)C1CCN(CCc2cccs2)CC1,inactive: -0.19%
2,CC(=O)N(Cc1cccnc1)C1CCN(CCc2cccs2)CC1,inactive: 0.15%
